Source: PubChem BioAssay AID651548 (Broad Institute, 2012)
The entries are a selection whose mix differs from that of the whole data set. Some structures show a salt or complex split into parts, the way the source records it. Active and inactive are the calls of the source.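 The calls were made as follows: active = mean inhibition of replicates at least 50% and every single replicate also reaching 50%; inconclusive = mean inhibition at least 50% but some replicate falls below 50%; inactive = mean inhibition under 50%.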

Chains of the proteins cited; added tags and fusions are not shown.
UniProt Q15910, whole entry: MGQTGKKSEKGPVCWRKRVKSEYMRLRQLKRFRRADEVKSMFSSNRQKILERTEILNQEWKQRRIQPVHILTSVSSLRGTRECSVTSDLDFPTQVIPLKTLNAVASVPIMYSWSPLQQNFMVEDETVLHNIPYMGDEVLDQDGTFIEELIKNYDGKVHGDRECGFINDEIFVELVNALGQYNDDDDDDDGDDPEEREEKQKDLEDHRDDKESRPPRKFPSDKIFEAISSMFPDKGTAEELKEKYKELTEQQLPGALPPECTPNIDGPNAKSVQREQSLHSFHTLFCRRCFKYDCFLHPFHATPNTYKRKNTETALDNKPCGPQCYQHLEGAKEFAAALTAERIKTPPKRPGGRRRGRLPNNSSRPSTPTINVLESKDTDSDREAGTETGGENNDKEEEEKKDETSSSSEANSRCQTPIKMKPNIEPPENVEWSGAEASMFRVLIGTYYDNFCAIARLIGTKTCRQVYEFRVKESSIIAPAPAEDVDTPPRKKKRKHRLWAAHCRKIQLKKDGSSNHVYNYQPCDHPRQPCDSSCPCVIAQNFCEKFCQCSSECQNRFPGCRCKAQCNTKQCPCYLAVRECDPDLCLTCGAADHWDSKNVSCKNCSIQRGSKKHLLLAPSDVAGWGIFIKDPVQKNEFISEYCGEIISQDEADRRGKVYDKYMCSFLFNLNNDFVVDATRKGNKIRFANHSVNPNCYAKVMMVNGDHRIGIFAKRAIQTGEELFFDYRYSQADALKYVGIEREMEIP

target: Histone-lysine N-methyltransferase EZH2 (Homo sapiens) (UniProt Q15910); experiment: inhibition of PRC2 H3K27 methylation – biochemical, DELFIA time-resolved fluorescence, single point, primary screen (AID 651548); conditions: DELFIA TRF, 1 h, at 12.5 µM, active compounds read high;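 also: dimethyl H3K27 on biotinylated H3 21-44 peptide detected by antibody; plate controls were median neutral control wells for no effect and median positive control wells for full effect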

SMILES	inhibition
C/C1=C2N=C(/C=C3N=C(/C(C)=C4\[N-][C@@](C)([C@@H]5N=C1[C@](C)(CCC(=O)NCC(C)OP(=O)(O)O[C@@H]1[C@H](O)[C@H](n6cnc7cc(C)c(C)cc76)O[C@H]1CO)[C@H]5CC(N)=O)[C@@](C)(CC(N)=O)[C@@H]4CCC(N)=O)[C@@](C)(CC(N)=O)[C@@H]\3CCC(N)=O)C(C)(C)[C@@H]/2CCC(N)=O.[C-]#N.[Co+3] (stereo partly specified)	inactive: -6.46%
